Earlier results on one molecule are cited in US9617577B2, “Bacillus pumilus bilirubin oxidase and applications thereof” (CENTRE NATIONAL DE LA RECHERCHE SCIENTIFIQUE, priority 2010, dated 2017).

For orientation: Km means the concentration of substrate that gives half-maximal velocity.

The data set concerns Bacillus subtilis CotA (BOD). The conditions noted are these: read-out: KM (ABTS); same optimal activity conditions; Martins et al., 2008; cited from earlier work.

`CCn1c(=NN=c2sc3cc(S(=O)(=O)O)ccc3n2CC)sc2cc(S(=O)(=O)O)ccc21` [ABTS, 2,2′-azinobis(3-ethylbenzothiazoline-6-sulphonic acid)]: the Km is 124 µM.
